Literature values, collected in publication PMC7007292 (Oncotarget, 2020).

System: GC patients
Details: added to standard chemotherapy vs chemotherapy alone; cited from earlier work

## trastuzumab: recombinant humanized monoclonal antibody against ERBB2/Her2
  median OS: improved median OS
